Assay: thermal denaturation monitoring circular dichroism, PMPA designs

Row | Substance | thermostability [°C]
1 | glucose-binding protein | 58
2 | ribose-binding protein | 60

Reference: patent US20040229290A1 (priority 2003, published 2004)
